The data set in a line: Dependence studies, DAF (drug admixed food) method. As to conditions: 0.05% (w/w) in food, 6 weeks, average daily dose 40 mg/kg, two weeks after withdrawal.

The values that follow come from US4835152A, “1-(4-Aminophenyl)-4-methyl-7,8-methylenedioxy-3,4-dihydro-5H-2,3-b enzodiazepine and acid addition salts thereof same” (Biogal Gyogyszergyar, priority 1986, dated 1989).

Each structure is given as a SMILES string.

As to `CC1Cc2cc3c(cc2C(c2ccc(N)cc2)=NN1)OCO3` (stereo not shown) [Example 1, 1-(4-aminophenyl)-4-methyl-7,8-methylenedioxy-3,4-dihydro-5H-2,3-benzodiazepine], the “Withdrawal symptoms or signs of dependence” value is listed as “Withdrawal symptoms or signs of dependence were not observed”.
